Structures can show the parent of a compound that is named as a salt.
Assays:
5-HT1A = 5-HT1A (Homo sapiens, UniProt P08908); test: Radioligand binding; conditions: read-out: Ki nM (±SEM); [3H]8-OH-DPAT, cloned human receptor
5-HT2C = molecular target: T1, 5-HT2C (Rattus norvegicus, UniProt P08909); test: Radioligand binding; conditions: read-out: Ki nM (±SEM); [3H]mesulergine, cloned rat receptor
T1 sequence (P08909 33-460): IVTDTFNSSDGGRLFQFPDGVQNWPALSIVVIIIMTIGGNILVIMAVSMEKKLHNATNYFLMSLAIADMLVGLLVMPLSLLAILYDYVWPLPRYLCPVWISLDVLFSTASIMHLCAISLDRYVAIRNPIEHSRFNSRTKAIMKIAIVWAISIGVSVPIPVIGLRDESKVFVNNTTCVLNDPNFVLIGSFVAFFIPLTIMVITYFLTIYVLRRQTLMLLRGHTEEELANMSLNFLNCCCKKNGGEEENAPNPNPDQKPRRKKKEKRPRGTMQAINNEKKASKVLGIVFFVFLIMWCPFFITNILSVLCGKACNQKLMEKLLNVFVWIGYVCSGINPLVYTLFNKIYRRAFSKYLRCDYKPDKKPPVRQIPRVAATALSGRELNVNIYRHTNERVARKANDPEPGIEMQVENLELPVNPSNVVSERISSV

Amino acid sequences for entries named in this document (tags omitted). A change or cut given only in a name is not applied to a line headed by its entry.
UniProt P08908, whole entry: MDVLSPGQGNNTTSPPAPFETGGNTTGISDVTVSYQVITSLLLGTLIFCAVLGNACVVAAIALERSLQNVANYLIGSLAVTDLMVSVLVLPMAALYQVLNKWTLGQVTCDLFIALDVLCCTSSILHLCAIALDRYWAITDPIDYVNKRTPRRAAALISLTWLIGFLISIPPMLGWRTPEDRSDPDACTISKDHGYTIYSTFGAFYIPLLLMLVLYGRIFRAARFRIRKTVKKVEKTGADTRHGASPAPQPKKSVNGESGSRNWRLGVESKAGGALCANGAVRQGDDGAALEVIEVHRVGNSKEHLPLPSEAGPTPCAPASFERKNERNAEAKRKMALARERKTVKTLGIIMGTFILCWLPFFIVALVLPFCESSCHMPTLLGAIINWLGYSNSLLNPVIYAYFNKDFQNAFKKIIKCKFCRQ
UniProt P50406, whole entry: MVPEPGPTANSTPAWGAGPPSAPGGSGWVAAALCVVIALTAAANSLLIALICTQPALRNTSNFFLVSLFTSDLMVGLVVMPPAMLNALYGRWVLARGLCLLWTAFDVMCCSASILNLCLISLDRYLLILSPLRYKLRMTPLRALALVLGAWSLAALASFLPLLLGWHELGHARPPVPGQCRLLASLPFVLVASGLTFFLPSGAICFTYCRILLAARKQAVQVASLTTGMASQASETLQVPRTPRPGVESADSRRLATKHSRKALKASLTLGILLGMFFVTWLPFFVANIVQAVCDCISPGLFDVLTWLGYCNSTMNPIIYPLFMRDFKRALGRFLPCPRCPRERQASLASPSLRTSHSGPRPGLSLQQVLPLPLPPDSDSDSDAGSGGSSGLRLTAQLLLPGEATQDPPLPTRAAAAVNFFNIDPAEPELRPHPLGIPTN
UniProt P28221: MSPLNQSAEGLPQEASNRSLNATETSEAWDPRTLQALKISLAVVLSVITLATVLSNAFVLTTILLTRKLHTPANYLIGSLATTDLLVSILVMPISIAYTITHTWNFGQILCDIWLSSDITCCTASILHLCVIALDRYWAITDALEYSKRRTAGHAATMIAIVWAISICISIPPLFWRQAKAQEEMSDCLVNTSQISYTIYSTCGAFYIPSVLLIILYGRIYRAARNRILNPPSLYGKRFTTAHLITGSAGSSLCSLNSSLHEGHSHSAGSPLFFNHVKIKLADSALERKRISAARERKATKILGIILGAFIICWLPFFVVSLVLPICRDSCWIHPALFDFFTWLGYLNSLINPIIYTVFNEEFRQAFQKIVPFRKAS

5-HT6 = 5-HT6 (Homo sapiens, UniProt P50406); test: Radioligand binding; conditions: read-out: Ki nM (±SEM); [3H]LSD, cloned human receptor
5-HT1D = 5-HT1D (Homo sapiens, UniProt P28221); conditions: read-out: Ki nM (±SEM); [3H]GR125743, cloned human receptor

Structure (SMILES): COc1ccc2[nH]cc(CCN(C)C)c2c1 [α,α,β,β-tetradeutero-5-MeO-DMT, α,α,β,β-Tetradeutero-5-methoxy-N,N-dimethyltryptamine (2:1) fumarate]
- Ki (5-HT1A): 3 nM
- Ki (5-HT2C): 286 nM
- Ki (5-HT6): 10 nM
- Ki (5-HT1D): 1.7 nM

Reference: article PMC3796951 (Psychopharmacology, 2012)
